{"source": "patent US20250304549A1", "about": "“HYDROXYAMIDE DERIVATIVE AND USE THEREOF” (SICHUAN HUIYU PHARMACEUTICAL CO., LTD., priority 2022, published 2025)", "system": "NCI-H526 cells", "assay": "In vitro cell inhibition assay - NCI-H526 cell proliferation (CellTiter-Glo)", "assay_type": "cell-based", "conditions": "Homo sapiens, NCI-H526, 120 h, H526 small cell lung cancer cell proliferation, 5 days", "procedure": "6. In Vitro Cell Inhibition Assay—NCI-H526 Cell Proliferation\nThe inhibitory effect of the compounds on cell proliferation was assessed by detecting the number of viable cells using CellTiter-Glo® reagent. NCI-H526 cells in the logarithmic growth phase were collected and inoculated into transparent bottom 96-well plates at a density 1×10^3 cells per well with 100 μL of medium, and incubated at 37° C., 5% CO2 overnight. The compounds were sequentially diluted in a 5-fold concentration gradient with DMSO to obtain 8 different concentrations. These were then diluted with RPMI-640 (containing 10% FBS) cell culture medium to obtain the compound working solution (2×), which was added to the cell supernatant at 100 μL per well. The incubation continued for 5 days at 37° C., 5% CO2. The plate was then removed and equilibrated at room temperature (25° C.) along with the CellTiter-Glo® mixing reagent for 10-30 minutes; 80 μL of the culture medium was carefully aspirated from each well, and 80 μL of CellTiter-Glo® reagent was added. […] The 96-well plate was subsequently placed on a multifunctional microplate reader to record the Luminescence values (RLU).\nThe inhibition rate was calculated using the following formula: […]\nThe IC50 value was determined by fitting the inhibition rate by GraphPad Prism software.", "note": "Where a name gives a salt, the structure may show the parent alone.", "data": [{"molecule": "N#Cc1ccc(-c2c(-c3ccc(F)c(O)c3)cnc(N3CCC(NCc4ccc(/C=C/C(=O)NO)cc4)CC3)c2C#N)cc1F", "note": "[Example 97, (E)-3-(4-((1-(3-Cyano-4-(4-cyano-3-fluorophenyl)-5-(4-fluoro-3-hydroxyphenyl)pyridin-2-yl)piperidin-4-yl)amino)methyl) phenyl)-N-hydroxyacrylamide formate]", "values": [{"measurement": "IC50", "value": 0.0142, "unit": "µM"}]}]}
